Results: PMC11096129 (Nature, 2024)

Protein sequences, listed by entry. Tags and fused reporters are not part of them.
replication protein-A (RPA), recombinant human heterotrimer of RPA1, RPA2 and 10xHis-RPA3, UniProt P15927, whole entry, chain 2 of 3: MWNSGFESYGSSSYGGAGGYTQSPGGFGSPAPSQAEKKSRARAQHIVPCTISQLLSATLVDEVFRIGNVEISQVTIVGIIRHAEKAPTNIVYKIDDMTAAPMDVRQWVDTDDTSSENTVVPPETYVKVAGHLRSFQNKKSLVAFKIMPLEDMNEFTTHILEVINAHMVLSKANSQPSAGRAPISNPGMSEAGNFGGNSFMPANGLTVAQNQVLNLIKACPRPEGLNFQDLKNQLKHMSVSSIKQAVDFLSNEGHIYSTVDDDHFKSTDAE
replication protein-A (RPA), recombinant human heterotrimer of RPA1, RPA2 and 10xHis-RPA3, UniProt P35244, whole entry, chain 3 of 3: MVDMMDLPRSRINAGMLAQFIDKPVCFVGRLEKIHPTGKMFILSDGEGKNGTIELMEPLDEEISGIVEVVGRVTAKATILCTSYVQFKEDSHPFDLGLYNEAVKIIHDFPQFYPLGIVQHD

Target: T1, replication protein-A (RPA), recombinant human heterotrimer of RPA1, RPA2 and 10xHis-RPA3 (human, UniProt P27694 1-616; P15927 1-270; P35244 1-121)
T1 construct: RPA1, human, full-length protein; RPA2, human, full-length protein; RPA3, human, full-length protein; The tag is printed as 10xHis-RPA3; RPA was detected by anti-His on the peptide array; source: Sf9 (baculovirus, biGBac pBIG1a), purified (Ni-NTA, Resource Q, Superdex 200); copies: + +
Experiment: pull-down; streptavidin beads pulling on biotin-labelled 40-nt ssDNA (SSA4, photo-cleavable linker, 0.1 µM) pre-bound by RPA (0.15 µM), then RAD52 (0.15 µM); 25 mM HEPES pH 8.0, 200 mM KOAc, 2 mM Mg(OAc)2, 0.01% Tween-20; Coomassie gel; the bait is the ssDNA
Conditions: both partners purified

binding result: binds
B1: RAD52 open ring (RAD52-OR), recombinant human RAD52, Resource S peak 1 (natural protein, UniProt P43351 1-418, looked up)
chain: MSGTEEAILGGRDSHPAAGGGSVLCFGQCQYTAEEYQAIQKALRQRLGPEYISSRMAGGGQKVCYIEGHRVINLANEMFGYNGWAHSITQQNVDFVDLNNGKFYVGVCAFVRVQLKDGSYHEDVGYGVSEGLKSKALSLEKARKEAVTDGLKRALRSFGNALGNCILDKDYLRSLNKLPRQLPLEVDLTKAKRQDLEPSVEEARYNSCRPNMALGHPQLQQVTSPSRPSHAVIPADQDCSSRSLSSSAVESEATHQRKLRQKQLQQQFRERMEKQQVRVSTPSAEKSEAAPPAPPVTHSTPVTVSEPLLEKDFLAGVTQELIKTLEDNSEKWAVTPDAGDGVVKPSSRADPAQTSDTLALNNQMVTQNRTPHSVCHQKPQAKSGSWDLQTYSADQRTTGNWESHRKSQDMKKRKYDPS
notes: codon-optimised cDNA in pET100 with the 6xHis, T7 and Xpress tags removed by inverse PCR; the intact mass approximated RAD52 less the N-terminal methionine; At most ten subunits; open rings with 9, 7-8, 6 and 5 subunits were also seen, and the oligomeric state depends on concentration; also called RAD52 open rings; wild-type RAD52; source: E. coli BL21 Star (DE3), purified (HiTrap SP, HiTrap Q …)
